In one data set the test system is Lung cancer cell lines. In words: Cytotoxicity of scDb on AMG510-treated lung cancer cell lines co-cultured with human T-cells (FIG. 19). Type of data set: cell-based. To be noted: 100 nM AMG510 for 24 hr, human T-cells E:T=5:1, cell viability. On the procedure:
FIG. 19. Graphs showing specific cytotoxic effect of AMRA3-7_UCHT1 scDb on drug-treated lung cancer cell lines. (A) Lung cancer cell lines were treated with 100 nM AMG510 for 24 hr, then co-cultured with human T-cells (E:T=5:1) in the presence of AMRA3-7_UCHT1 scDb. After incubation, cell viability was measured. […] (B) Cytotoxic effect of scDb at 0.1 nM concentration. Data shown here are from quadruplicate measurements.
To obtain the results for FIG. 19, lung cancer cell lines were cultured in RPMI supplemented with 10% fetal bovine serum (FBS) and penicillin/streptomycin. For cytotoxicity assays, 1×10^4 cells/well were seeded in 96-well flat bottom plates and incubated at 37° C., 5% CO2 for 24 hours. Media were replaced with fresh media supplemented with 100 nM AMG510 or DMSO, then the cells were incubated for 24 hours at 37° C. After incubation, cells were co-cultured with human T cells (E:T=5:1) and AMRA3-7_UCHT1 scDb in the presence of 100 IU/mL IL-2 for 24 hr at 37° C. Cell viability was assessed by using PrestoBlue™ Cell Viability Reagent (ThermoFisher, A13261). Cytotoxicity was calculated by taking the fluorescent signal of a given well, subtracting the fluorescent signal from the wells that contain only T-cells, and normalizing to the fluorescent signal from the wells without scDb.

Another data set deals with Raji cells. In words: Cell killing of peptide-drug-pulsed Raji cells co-cultured with human T cells (FIG. 21A, 22B). Type of data set: cell-based. Particulars: Raji cells pulsed with AMG510-KRAS(G12C) peptide conjugate or KRAS(wild type) control peptide, human T cells E:T=3:1. On the procedure: To obtain the results for FIG. 21 (A) and FIG. 22 (B), Raji cells (ATCC) were cultured in RPMI supplemented with 10% fetal bovine serum (FBS) and penicillin/streptomycin. The cytotoxic effects of scDb and CrossMab were measured by following the protocol published previously (ref: PMID 26813960). Briefly, Raji cells were stained with carboxyfluorescein succinimidyl ester (CSFE, ThermoFisher, 65-0850-84), then incubated with 10 μM KRAS(G12C)-AMG510 conjugate or 10 μM KRAS(WT) peptide (final concentrations) in the presence of 10 μg/mL human beta-2 microglobulin for 4 hr. The cells were harvested by centrifugation and washed in media to remove the unbound conjugate and peptide. Peptide-drug-pulsed cells were then co-cultured with human T-cells (E:T=3:1) in the presence of scDb or CrossMab for 19 hr. After incubation, cells were harvested and washed with PBS, then stained with Fixable Viability Dye eFluor660 (ThermoFisher, 65-0864-14). After washing again, cells were analyzed on iQue screener (Satorius).
(A) Raji cells were first pulsed with AMG510 conjugated to a peptide corresponding to a fragment of KRAS(G12C) or a control peptide corresponding to KRAS(wild type). […] After incubation for 17 hours, dead cells were stained and detected by flow cytometry. […] After incubation, dead cells were measured by detecting a distinct intracellular protease activity released from membrane-compromised cells. […]

B1: AMRA3-7_UCHT1 scDb: single-chain Diabody, SEQ ID NO: 144 (protein)
chain: DIVRSDIQMTQSPSSLSASVGDRVTITCRASQSVSSAVAWYQQKPGKAPKLLIYSASSLYSGVPSRFSGSRSGTDFTLTISSLQPEDFATYYCQQISYVYSLITFGQGTKVEIKGGGGSEVQLQQSGPELVKPGASMKISCKASGYSFTGYTMNWVKQSHGKNLEWMGLINPYKGVSTYNQKFKDKATLTVDKSSSTAYMELLSLTSEDSAVYYCARSGYYGDSDWYFDVWGQGTTLTVSSGGGGSGGGGSGGGGSDIQMTQTTSSLSASLGDRVTISCRASQDIRNYLNWYQQKPDGTVKLLIYYTSRLHSGVPSKFSGSGSGTDYSLTISNLEQEDIATYFCQQGNTLPWTFAGGTKLEIKGGGGSEVQLVESGGGLVQPGGSLRLSCAASGFTFSSYSIHWVRQAPGKGLEWVASIYSSYGYTSYADSVKGRFTISADTSKNTAYLQMNSLRAEDTAVYYCARGGWYPAMDYWGQGTLVTVSSLEGGGGLNDIFEAQKIEWHESRHHHHHH
In the case of B1, in the data set with Lung cancer cell lines, the “cytotoxic effect on drug-treated lung cancer cell lines” value is “dose-dependent cytotoxic effect only on the AMG510-treated cells with the cognate KRAS mutation (G12C) and HLA (HLA-A3)”.

B2: AMRA3-7D scDb: single-chain Diabody, SEQ ID NO: 148 (protein)
chain: DIVRSDIQMTQSPSSLSASVGDRVTITCRASQSVSSAVAWYQQKPGKAPKLLIYSASSLYSGVPSRFSGSRSGTDFTLTISSLQPEDFATYYCQQISYVKKLITFGQGTKVEIKGGGGSEVQLQQSGPELVKPGASMKISCKASGYSFTGYTMNWVKQSHGKNLEWMGLINPYKGVSTYNQKFKDKATLTVDKSSSTAYMELLSLTSEDSAVYYCARSGYYGDSDWYFDVWGQGTTLTVSSGGGGSGGGGSGGGGSDIQMTQTTSSLSASLGDRVTISCRASQDIRNYLNWYQQKPDGTVKLLIYYTSRLHSGVPSKFSGSGSGTDYSLTISNLEQEDIATYFCQQGNTLPWTFAGGTKLEIKGGGGSEVQLVESGGGLVQPGGSLRLSCAASGFTFSDYSIHWVRQAPGKGLEWVASISSSSGSTSYADSVKGRFTISADTSKNTAYLQMNSLRAEDTAVYYCARGGWYPAMDYWGQGTLVTVSSLEGGGGLNDIFEAQKIEWHESRHHHHHH
Turning to B2, in the data set on Raji cells, the “cell killing effect on pulsed Raji cells” value is recorded as “Dose-dependent cell killing effect”.

For the origin of these results see patent US12391770B2, “Compositions and methods comprising antibodies that bind to covalent peptide conjugates” (New York University, priority 2021, dated 2025).
